Apparent affinities of Ab-14 variants for a coronavirus HR2 peptide

Target: peptide PDVDLGDISGINAS, taken from heptad repeat 2 (HR2) of SARS-CoV-2 spike.

Parent: Ab-14, a human scFv built as VH, a (GGGGS)3 linker, VL. Only the CDRs of the heavy chain vary.
VH: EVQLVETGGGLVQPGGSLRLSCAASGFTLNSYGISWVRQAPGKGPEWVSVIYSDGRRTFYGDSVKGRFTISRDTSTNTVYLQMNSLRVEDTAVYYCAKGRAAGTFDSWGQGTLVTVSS
VL: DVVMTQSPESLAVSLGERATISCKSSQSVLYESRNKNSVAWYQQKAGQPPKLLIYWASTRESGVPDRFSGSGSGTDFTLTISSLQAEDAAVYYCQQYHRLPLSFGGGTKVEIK

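Phage display of a naive human antibody library on the peptide gave the parent. Variants in AAYL49 differ from the parent at up to three CDR positions; double and triple changes were sampled at random. Affinity was read by AlphaSeq, a pooled yeast mating assay with surface-displayed partners. Binding brings cells together so that they mate, and sequencing counts the barcode pairs among the diploids. Each replicate has its own calibration line, from reference interactions of the BCL2 family. There are three technical replicates.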

Positions count from residue 1 of the parent VH; I34F puts F in place of I. Numbers give log10(Kd / nM), so 0 is 1 nM and 3 is 1 µM. Smaller is tighter. "n.d." means that the variant was in the library but no mating with the target was seen in that replicate; the authors take this as a sign of poor binding, and no number exists.

| # | changes | log10 Kd, replicates | control signals |
|---|---|---|---|
| 1 | I34F S35V | 3.70 / n.d. / n.d. | 5/9 (3.96) |
| 2 | G61A F105Q | n.d. / n.d. / n.d. | 0/9 |
| 3 | I51Q D54E A102D | 5.24 / 4.24 / 4.92 | 7/9 (4.72) |
| 4 | S53G R56D D106I | 4.31 / n.d. / n.d. | 4/9 (4.34) |
| 5 | F27L S53D G103N | n.d. / n.d. / n.d. | 1/9 (4.83) |
| 6 | S31I R56A R100Q | 1.46 / n.d. / n.d. | 0/9 |
| 7 | N30T G61K F105N | 3.36 / n.d. / n.d. | 0/9 |
| 8 | I51F G61V K65W | n.d. / n.d. / n.d. | 1/9 (3.45) |
| 9 | L29H T104A | n.d. / 3.57 / 4.59 | 4/9 (3.73) |
| 10 | L29K Y60L G61H | 4.32 / 4.11 / n.d. | 4/9 (4.04) |
| 11 | G55E A101E S107R | 5.91 / 2.89 / n.d. | 3/9 (3.98) |
| 12 | D62F S63K T104H | 4.27 / n.d. / n.d. | 0/9 |
| 13 | Y52E A101S T104K | n.d. / n.d. / n.d. | 0/9 |
| 14 | F27W Y60F K65D | n.d. / n.d. / n.d. | 0/9 |
| 15 | R56M T58P G103I | n.d. / n.d. / n.d. | 2/9 (3.05) |
| 16 | G61Y F105I | n.d. / n.d. / n.d. | 1/9 (4.27) |
| 17 | T58D R100D S107V | 1.56 / 1.71 / 1.67 | 1/9 (5.40) |
| 18 | G26A Y52F A101L | 1.26 / n.d. / n.d. | 0/9 |
| 19 | S63R K65H | n.d. / n.d. / 2.05 | 0/9 |
| 20 | T28P T104H | 0.68 / 0.84 / 0.81 | 3/9 (4.91) |
| 21 | S35Q I51S K65W | n.d. / n.d. / n.d. | 1/9 (3.80) |
| 22 | T58V A101Y F105V | 1.84 / 2.76 / 1.13 | 0/9 |
| 23 | V50E R100N S107L | n.d. / n.d. / n.d. | 1/9 (3.14) |
| 24 | G33P T58L F105R | 6.06 / 3.16 / 3.45 | 3/9 (3.66) |
| 25 | S31D S35P T104E | n.d. / n.d. / n.d. | 1/9 (4.90) |
| 26 | Y32Q T58H F59W | 4.11 / 3.08 / 3.21 | 0/9 |
| 27 | S63V K65S A101P | 2.80 / 3.67 / 3.83 | 1/9 (4.31) |
| 28 | S53Q D54M A101S | n.d. / n.d. / n.d. | 0/9 |
| 29 | S31F D54L T104P | 4.93 / 4.66 / n.d. | 2/9 (3.00) |
| 30 | F59S G61Y G99L | n.d. / n.d. / n.d. | 0/9 |
| 31 | G26L G103C S107C | 2.14 / 2.06 / 2.47 | 5/9 (4.77) |
| 32 | V50K S53W A102D | n.d. / n.d. / n.d. | 0/9 |
| 33 | S31Y S35Y D106N | 5.19 / n.d. / 3.25 | 3/9 (4.18) |
| 34 | F27G F59W D106Q | 4.12 / n.d. / n.d. | 2/9 (3.35) |

Picked from the list: the 4 lowest averages where every replicate gave a value.

changes,"log10 Kd, replicates",control signals
T28P T104H,0.68 / 0.84 / 0.81,3/9 (4.91)
T58D R100D S107V,1.56 / 1.71 / 1.67,1/9 (5.40)
T58V A101Y F105V,1.84 / 2.76 / 1.13,0/9
G26L G103C S107C,2.14 / 2.06 / 2.47,5/9 (4.77)

Background: pairings of library AAYL49 with three empty control strains gave a value in 15% of cases (median 4.06, 5th percentile 2.83). Values in that range, when seen in few replicates, are hard to tell from nonspecific mating. For each scFv, signals with the empty controls are counted beside the result, with their mean in brackets. For reference, the parent read 0.65 as the reference entry and 4.11 (one replicate of three) as a member of this library.

Source: Engelhart et al. 2022 (doi:10.1038/s41597-022-01779-4), MIT Lincoln Laboratory and A-Alpha Bio; data file from the FLAb repository.